Screening data deposited in PubChem by National Center for Advancing Translational Sciences (NCATS).
TrxR1 substrate = rat thioredoxin reductase 1 substrate activity | O89049 | purified TrxR1 substrate turnover, NADPH consumption readout | Potency, µM (titrated, usually from 114 µM), without a hit: at the top dose activity change, negative = substrate turnover | actives 0.01% (n = 390,000); also: potency is read from the fitted curve at half-maximal effect; % is scaled to controls: 0 for no effect and ±100 for the full control effect; nearly all actives have a fitted effect of over 50% in size
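Rat TrxR1, dispensed at 90 nM, was prereduced with 400 uM NADPH (final) for 5 min at ~22 deg C, then incubated with compound 15 min before 400 uM selenite. A first-read NADPH fluorescence drop versus no-compound background flagged substrates.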
miR-21 FLuc = miR-21 reporter, rising signal; Potency, µM (doses to about 38.3 µM), without a hit: at the top dose reporter change, positive = more light; HeLa miR-21 FLuc reporter, luciferase, 48 h; 340,000 tested, under 10 active; active = well fitted rising curve with a large enough effect; inconclusive = small, poorly fitted or top-dose-only effect; inactive = no such curve, though single readings can be large or run the other way;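 further: % of control where 0% means no effect; miR-21 action dims this reporter so a rising signal means less miR-21 action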
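Luminescence from a firefly luciferase reporter carrying a miR-21 binding site downstream, stably expressed under a CMV promoter in HeLa cells that make miR-21 endogenously, reports miRNA modulation after 48 h compound exposure up to approximately 40uM final.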
Anesthetic bind = binds horse apoferritin like a general anesthetic | Potency, µM (highest dose often 77.5 µM), for inactives: at the top dose activity change, negative = displacement, actives largely listed as inhibitors | actives 0.074% (n = 350,000) | P02791 | apoferritin/1-aminoanthracene competitive binding, fluorescence | AID 485281; also: potency is read from the fitted curve at half-maximal effect; % is scaled to controls: 0 for no effect and ±100 for the full control effect; nearly all actives have a fitted effect of over 20% in size
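Apoferritin-based anesthetic binding model; compound displacement of fluorescent 1-AMA measured as endpoint fluorescence after 10 minutes at room temperature, scaled to free-ligand and complex controls.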
ClpP mod = qHTS Assay for Activators of ClpP | actives 1.9% (n = 340,000) | purified B. subtilis ClpP, FRET peptide cleavage, 20 min | Potency, µM (highest dose often 57.5 µM), inactives show at the highest dose activity change, negative = active; active = well fitted falling curve with a large enough effect; inconclusive = small, poorly fitted or top-dose-only effect; inactive = no such curve, though single readings can be large or run the other way; also: potency is read from the fitted curve at half-maximal effect; the source files actives as falling curves though it sought activators and does not explain the sign; nearly all actives have a fitted effect of over 65% in size
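Purified B. subtilis ClpP, 10 microg/mL final in Tris/HCl pH8 with KCl, BSA, glycerol and Tween-20, cleaved an Abz/nitrotyrosine-quenched decapeptide. Fluorescence (ex 320, em 430) was read at 0 and 20 min at room temperature. Delta was normalized to 5.8 microM ADEP and DMSO/no-enzyme controls.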
TrxR1 inh = inhibitors of rat thioredoxin reductase 1. actives 1% (n = 390,000). O89049. Potency, µM (top dose mostly 114 µM), inactives show at the highest dose activity change, negative = inhibition, hits mostly inhibitors. recombinant rTrxR1, NADPH fluorescence consumption, selenite substrate; also: potency is read from the fitted curve at half-maximal effect; % is scaled to controls: 0 for no effect and ±100 for the full control effect; nearly all actives have a fitted effect of over 65% in size
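Rat TrxR1 (90 nM in the dispensed reagent) was pre-reduced with 400 uM NADPH for 5 min at room temperature, then incubated with compound for 15 min. After 400 uM selenite was added, NADPH fluorescence (Ex 340/Em 450 nm) was followed for 8 min.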
Active calls of the source: *; [ ] = another dose, or the depositor's remark. Hits are enriched below; roughly 2.5% of the tested compounds scored in any of these assays. Unless noted, calls follow the shape of the dose curve; as a rule, active = well fitted curve in the direction sought with a large enough effect; inconclusive = small, poorly fitted or top-dose-only effect, or another doubt; inactive = no such curve, though single readings can be large; an effect the other way counts as inactive or inconclusive.

O=C(Nc1sc2c(c1C(=O)NCc1ccco1)CCCC2)c1cc(=O)c2ccccc2o1 was read as TrxR1 substrate -1.0%, miR-21 FLuc -67.4%, Anesthetic bind 1.2%, ClpP mod -1.3% and TrxR1 inh 5.7%.
`CCC(=O)N1CCc2cc(S(=O)(=O)NCCC(=O)NCc3ccc(C)cc3)ccc21` gave TrxR1 substrate 1.6%, miR-21 FLuc -2.5%, Anesthetic bind -9.1%, ClpP mod -6.1% and TrxR1 inh 9.1%.
For NC(=O)CSc1nc2scc(-c3ccco3)c2c(=O)n1-c1ccccc1 the results were TrxR1 substrate -1.5%[57.1 µM], miR-21 FLuc -0.9%, Anesthetic bind -21.8%, ClpP mod -0.4% and TrxR1 inh 8.91µM*.
For C=CCn1c(SCC(=O)NCC2CCCO2)nc2scc(-c3ccco3)c2c1=O (stereo not drawn) the results were TrxR1 substrate 7.4%, miR-21 FLuc 0.3%, Anesthetic bind -5.9%, ClpP mod -3.6% and TrxR1 inh -38.1%.
`NC(=O)c1c(NC(=O)CSc2nnc(-c3ccco3)n2-c2ccccc2)sc2c1CCC2` gave TrxR1 substrate -13.8%, miR-21 FLuc 17.5%, Anesthetic bind 22.4µM*, ClpP mod -2.4% and TrxR1 inh inconclusive.
Screening O=C(CSc1nc2scc(-c3ccco3)c2c(=O)n1-c1ccccc1)N1CCOCC1 returned TrxR1 substrate 9.7%[0.457 µM], miR-21 FLuc 0.7%, Anesthetic bind -9.7%, ClpP mod -0.5% and TrxR1 inh -31.2%.
O=C(CSc1nc2scc(-c3ccco3)c2c(=O)n1-c1ccccc1)NCC1CCCO1 (stereo not drawn) was read as TrxR1 substrate -5.0%, miR-21 FLuc -3.4%, Anesthetic bind -4.5%, ClpP mod -5.3% and TrxR1 inh 44.7µM*.
Screening CC(C)(C)n1ncc2c(=O)n(Cc3ccc(C#N)c(F)c3)cnc21 returned TrxR1 substrate -2.3% and TrxR1 inh -0.8%.
`Cc1cccc(NC(=O)c2sc3nc(-c4cc5ccc(O)cc5oc4=O)[nH]c(=O)c3c2C)c1` gave TrxR1 substrate -2.0%, miR-21 FLuc -15.2%, Anesthetic bind 5.0%, ClpP mod -4.8% and TrxR1 inh -7.2%.
For O=C(CN(Cc1ccccc1)C(=O)CCl)c1cccc(Br)c1 the results were TrxR1 substrate -5.2%, ClpP mod 1.6% and TrxR1 inh 14.1µM*.
For O=C(NCCCc1ccccc1)c1cccc(Br)c1 the results were TrxR1 substrate -0.7%, ClpP mod 1.3% and TrxR1 inh 24.3%.
`CCc1ccc(S(=O)(=O)NC(=S)NC2CCCCC2)cc1` gave TrxR1 substrate 4.8%[57.1 µM], miR-21 FLuc -1.8%, Anesthetic bind -6.6% and TrxR1 inh 6.31µM*.

The last 2 entries of the part before come first, to join the parts.
For O=C(NCCCc1ccccc1)c1cccc(Br)c1 the results were TrxR1 substrate -0.7%, ClpP mod 1.3% and TrxR1 inh 24.3%.
`CCc1ccc(S(=O)(=O)NC(=S)NC2CCCCC2)cc1` gave TrxR1 substrate 4.8%[57.1 µM], miR-21 FLuc -1.8%, Anesthetic bind -6.6% and TrxR1 inh 6.31µM*.
`Cc1ccc(S(=O)(=O)NC(=S)NC2CCCCC2)cc1` gave TrxR1 substrate 8.2%, miR-21 FLuc -1.3%, Anesthetic bind -7.4% and TrxR1 inh 3.55µM*.
Screening O=S(=O)(NC(=S)NC1CCCCC1)c1ccc(Cl)cc1 returned TrxR1 substrate 1.7%, miR-21 FLuc -0.8%, Anesthetic bind -13.7%, ClpP mod -1.0% and TrxR1 inh 2.82µM*.
Cc1ccc(S(=O)(=O)NC(C)C(=O)NC2CCCCCC2)cc1 (stereo not drawn) was read as TrxR1 substrate 4.3%, miR-21 FLuc -4.1%, Anesthetic bind -3.5%, ClpP mod -1.2% and TrxR1 inh 4.6%.
For Cc1cc(C)c(NC(=O)CSc2n[nH]c(-c3ccccc3Cl)n2)c(C)c1 the results were TrxR1 substrate -4.2%[57.1 µM], miR-21 FLuc 3.0%, Anesthetic bind 13.6%, ClpP mod 0.3% and TrxR1 inh 13.5%[57.1 µM].
For Cc1cc2nn(-c3cccc4ccccc34)nc2cc1NC(=O)c1cccs1 the results were TrxR1 substrate 42.0%, miR-21 FLuc -12.5%, Anesthetic bind 23.4%, ClpP mod 14.1µM* and TrxR1 inh 31.4%.
Screening Cc1cc2nn(-c3ccc(F)cc3)nc2cc1NC(=O)c1cccc2ccccc12 returned TrxR1 substrate 5.3%, miR-21 FLuc -27.8%, Anesthetic bind -2.6%, ClpP mod 7.6% and TrxR1 inh 11.7%.
O=C(COC(=O)c1cc(S(=O)(=O)N2CCOCC2)ccc1O)NCC1CCCO1 (stereo not drawn) was read as TrxR1 substrate 7.1%, miR-21 FLuc -5.2%, Anesthetic bind -3.5%, ClpP mod 35.5µM* and TrxR1 inh -7.3%.
Screening O=C(COc1ccc(S(=O)(=O)N2CCOCC2)cc1)NCC1CCCO1 (stereo not drawn) returned TrxR1 substrate -9.7%, miR-21 FLuc -3.4%, Anesthetic bind -0.8%, ClpP mod -4.3% and TrxR1 inh 2.5%.
Screening COc1ccc(CNC(=O)c2ccc3nc(-c4ccc(F)cc4)c(-c4ccc(F)cc4)nc3c2)cc1 returned TrxR1 substrate 4.2%[57.1 µM], miR-21 FLuc -0.5%, Anesthetic bind -6.9%, ClpP mod -2.3% and TrxR1 inh 15.8%[57.1 µM].
`CCOc1ccc(NC(=O)CC2C(=O)N(c3ccccc3)C(=O)N2Cc2ccco2)cc1` (stereo not drawn) gave TrxR1 substrate 2.2%[57.1 µM], miR-21 FLuc -2.1%, Anesthetic bind -8.8%, ClpP mod 25.1µM* and TrxR1 inh -0.2%[57.1 µM].
Screening CCOc1ccc(NC(=O)CSc2nnc(-c3ccccc3Cl)n2Cc2ccco2)cc1 returned TrxR1 substrate 5.3%, miR-21 FLuc 6.3%, Anesthetic bind 7.1%, ClpP mod 17.8µM* and TrxR1 inh 5.7%[57.1 µM].
`CC1=C(c2ccc(C)cc2)S(=O)(=O)N(Cc2ccc(C(=O)Nc3ccc(F)cc3C)cc2)C1=O` gave TrxR1 substrate -7.7%[57.1 µM], miR-21 FLuc 3.6%, Anesthetic bind 43.3%, ClpP mod -15.4% and TrxR1 inh -2.4%[57.1 µM].
O=C1NC(=S)S/C1=C\C=C\c1ccc([N+](=O)[O-])o1 was read as TrxR1 substrate -23.2%, miR-21 FLuc inconclusive, Anesthetic bind -19.6% and TrxR1 inh 10µM*.
Screening O=C(c1ccc2c(=O)n(-c3ccccc3)c(=O)[nH]c2c1)N1CCN(Cc2cccs2)CC1 returned TrxR1 substrate 1.0%, ClpP mod -9.9% and TrxR1 inh 14.1%.
O=c1c2c(nc3c(-c4cccc5ccccc45)c[nH]n13)CCC2 was read as TrxR1 substrate 12.4%, miR-21 FLuc -0.7%, Anesthetic bind 7.5%, ClpP mod 11.2µM* and TrxR1 inh 10.9%.
For O=c1c2c(nc3c(-c4ccc(Cl)cc4)c[nH]n13)CCCC2 the results were TrxR1 substrate 5.8%[57.1 µM], miR-21 FLuc 28.5%, Anesthetic bind -1.1%, ClpP mod 14.1µM* and TrxR1 inh -10.5%.

3 entries already listed, sorted by molar mass, largest number first.
`CC1=C(c2ccc(C)cc2)S(=O)(=O)N(Cc2ccc(C(=O)Nc3ccc(F)cc3C)cc2)C1=O` gave TrxR1 substrate -7.7%[57.1 µM], miR-21 FLuc 3.6%, Anesthetic bind 43.3%, ClpP mod -15.4% and TrxR1 inh -2.4%[57.1 µM].
O=c1c2c(nc3c(-c4cccc5ccccc45)c[nH]n13)CCC2 was read as TrxR1 substrate 12.4%, miR-21 FLuc -0.7%, Anesthetic bind 7.5%, ClpP mod 11.2µM* and TrxR1 inh 10.9%.
For O=c1c2c(nc3c(-c4ccc(Cl)cc4)c[nH]n13)CCCC2 the results were TrxR1 substrate 5.8%[57.1 µM], miR-21 FLuc 28.5%, Anesthetic bind -1.1%, ClpP mod 14.1µM* and TrxR1 inh -10.5%.
